Test results published in patent US8168679B2, “Salts of Tramadol and Naproxen and their crystal forms in the treatment of pain” (Laboratorios del Dr. Esteve, S.A., priority 2007, dated 2012).

Test: Determination of the hygroscopicity of the crystalline salts (weight variation and Karl Fischer in humidity chamber)
Type: physicochemical
From the text: The objective was to measure the hygroscopicity of the salts of the present invention, and comparing it with the one of the known salt of each counter part of the salts. The increasing of the weight will be measured in order to evaluate the incorporation of water in the samples, together with the Karl Fischer factor.
According to “Technical guide for the elaboration of monographs” special issue PharmaEuropa, 3rd ed., December 1999, the hygroscopicity is defined based on the augmentation of weight after 24 hours of exposition to 80% of relative humidity at 25° C. The scale is the following:
Methods: • Preparation of the Humidity chamber: A supersaturated solution of sodium nitrite (45 g/50 ml) is prepared and introduced in a humidification chamber (samplaterecord). The chamber is maintained at a temperature of 25±2° C. during 24 hours before use, and humidity is controlled each day. […] 102.2 mg of sodium naproxen. • The samples are introduced in the conditioned humidity chamber, and the weight is controlled after 24 hours, 48 hours, and 6 days, till an equilibrium is reached (2 successive control with a variation of weight less than 0.2 mg). • The Karl Fischer is also determined (using a Methrom 756 KF) at the beginning and at the end of the study.
The variation of the weight is controlled and the following percentage is calculated: Δ% weigth=(Pn−P1)/P1×100 wherein: P1 is the initial weight, Pn is the weight measured for the sample.

**Q.** For “(R,R)-Tramadol-(S)-Naproxene Salt [Example 2]”, which “KF (t = 0)” value (Karl Fischer value at the beginning of the study) is on record?
**A.** Its value is 0.34.

**Q.** What about the “KF (t = 6 days)” value (Karl Fischer value at the end of the study, 6 days in humidity chamber) of the same substance?
**A.** The value was 0.2.

**Q.** What about the “hygroscopicity according to the scale” value (class by % incorporation of water) of the same substance?
**A.** The value was “not hygroscopic”.

**Q.** And the “observation of the powder in the course of the experiment” value (humidity chamber, 64% relative humidity, 25±2° C.)?
**A.** Its value is “remains a powder”.

**Q.** What about the “Δ % weigth 24 h” value (humidity chamber, 64% relative humidity, 25±2° C., 24 h) of the same substance?
**A.** Its value is 0%.

**Q.** And the “Δ % weigth 48 h” value (humidity chamber, 64% relative humidity, 25±2° C., 48 h)?
**A.** The value was 0%.

**Q.** And the “Δ % weigth 6 days” value (humidity chamber, 64% relative humidity, 25±2° C., 6 days)?
**A.** The value was 0%.
